Results from patent US8664400B2, “Triphenylamine derivatives useful as fluorophores in biology, in particular for two-photon microscopy” (Centre National de la Recherche Scientifique, priority 2006, dated 2014).

Assay: Emission and single-photon absorption properties in glycerol or sodium cacodylate buffer
Assay type: physicochemical
Conditions: in glycerol, at 474 nm

C[n+]1ccc(C=Cc2ccc(N(c3ccc(C=Cc4cc[n+](C)cc4)cc3)c3ccc(C=Cc4cc[n+](C)cc4)cc3)cc2)cc1.[I-].[I-].[I-] [TP-3Py, Tris[4-(2-N-methylpyridinium-4-ylvinyl)phenyl]amine iodide]
molar extinction coefficient (ε): 66 000 L/mol·cm
